The values that follow are results of earlier work, collected in patent US20050267009A1, “Method of Treatment of Acute and Persistent Pain” (priority 2004, published 2005).

The test system of the data set is chronic neuropathic pain. To be noted: rat CCI, intrathecal.

Turning to “recombinant human IL-2: recombinant human IL-2”, the “antinociceptive effect (paw-withdrawal latency)” value is “dose-dependent antinociceptive effect” and the “duration of antinociceptive effect” value was 10 to 25 min.
